Measured values reported in ChEMBL document CHEMBL5137076, “SLL-627 Is a Highly Selective and Potent κ Opioid Receptor (KOR) Agonist with an Unexpected Nonreduction in Locomotor Activity” (2022).

Amino acid sequences for entries named in this document (tags omitted).
UniProt P41145, whole entry: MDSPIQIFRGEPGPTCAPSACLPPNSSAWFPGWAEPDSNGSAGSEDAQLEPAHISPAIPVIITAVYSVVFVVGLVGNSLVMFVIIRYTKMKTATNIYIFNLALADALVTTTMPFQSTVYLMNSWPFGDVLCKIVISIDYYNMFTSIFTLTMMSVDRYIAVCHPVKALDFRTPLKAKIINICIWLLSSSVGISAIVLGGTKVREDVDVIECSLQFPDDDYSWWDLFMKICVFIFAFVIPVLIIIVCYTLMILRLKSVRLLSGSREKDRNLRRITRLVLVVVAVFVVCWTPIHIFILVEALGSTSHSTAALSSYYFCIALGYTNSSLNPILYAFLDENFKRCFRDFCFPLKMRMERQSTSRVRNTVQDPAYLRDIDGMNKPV
UniProt P33533, whole entry: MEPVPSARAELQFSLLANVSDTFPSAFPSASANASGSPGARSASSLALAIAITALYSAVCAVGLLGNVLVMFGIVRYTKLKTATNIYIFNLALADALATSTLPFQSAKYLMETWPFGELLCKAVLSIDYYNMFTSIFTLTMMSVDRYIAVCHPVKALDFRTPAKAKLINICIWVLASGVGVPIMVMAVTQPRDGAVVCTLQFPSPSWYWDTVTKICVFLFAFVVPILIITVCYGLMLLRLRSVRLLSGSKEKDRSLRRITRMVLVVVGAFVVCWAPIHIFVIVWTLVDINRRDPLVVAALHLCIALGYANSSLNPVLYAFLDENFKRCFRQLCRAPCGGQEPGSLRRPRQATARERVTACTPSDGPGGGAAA
UniProt P33535, whole entry: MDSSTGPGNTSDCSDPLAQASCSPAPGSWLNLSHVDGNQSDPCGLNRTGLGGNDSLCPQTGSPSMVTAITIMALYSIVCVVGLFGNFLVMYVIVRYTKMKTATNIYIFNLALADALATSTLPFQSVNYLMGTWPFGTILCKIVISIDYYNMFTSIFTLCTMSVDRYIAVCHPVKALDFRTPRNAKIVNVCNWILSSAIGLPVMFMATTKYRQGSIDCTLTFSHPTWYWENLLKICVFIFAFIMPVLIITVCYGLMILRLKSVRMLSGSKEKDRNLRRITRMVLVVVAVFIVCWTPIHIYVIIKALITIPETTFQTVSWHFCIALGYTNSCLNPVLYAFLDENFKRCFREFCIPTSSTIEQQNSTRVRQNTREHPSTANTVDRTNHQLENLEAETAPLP

Columns and labels:
[1] = molecular target: T1, Kappa-type opioid receptor (Homo sapiens, UniProt P41145); assay: Displacement of [3H]U69593 from human KOR expressed in CHO cell membranes incubated for 30 mins by liquid scintillation counting method
[2] = molecular target: T1, Kappa-type opioid receptor; assay: Agonist activity at human KOR expressed in CHO cell membranes after 1 hr by [35S]GTPgammaS binding assay
[3] = molecular target: T2, Delta-type opioid receptor (Rattus norvegicus, UniProt P33533); assay: Agonist activity at rat DOR expressed in CHO cell membranes after 1 hr by [35S]GTPgammaS binding assay
[4] = molecular target: T2, Delta-type opioid receptor; assay: Displacement of [3H]DPDPE from rat DOR expressed in CHO cell membranes incubated for 30 mins by liquid scintillation counting method
Mu-type opioid receptor [5] = molecular target: T3, Mu-type opioid receptor (Rattus norvegicus, UniProt P33535); assay: Displacement of [3H]DAMGO from rat MOR expressed in CHO cell membranes incubated for 30 mins by liquid scintillation counting method
Mu-type opioid receptor [6] = molecular target: T3, Mu-type opioid receptor; assay: Agonist activity at rat MOR expressed in CHO cell membranes after 1 hr by [35S]GTPgammaS binding assay

Row | SMILES | pKi [1] | pEC50 [2] | pEC50 [3] | pKi [4] | pKi (Mu-type opioid receptor [5]) | pEC50 (Mu-type opioid receptor [6])
1 | COc1cccc(C(=O)[C@]2(C)C[C@@]34CC[C@]2(OC)[C@@H]2Oc5c(OC)ccc6c5[C@@]23CCN(CC2CC2)[C@@H]4C6)c1 | 7.90 | 7.28 | 6.02 | 7.31 | 6.96 | 6.72
2 | COc1ccc2c3c1O[C@H]1[C@@]4(OC)CC[C@@]5(C[C@@]4(C)CO)[C@@H](C2)N(CC2CC2)CC[C@]315 |  |  | 6.81 | 6.90 |  | 
3 | COc1ccc2c3c1O[C@H]1[C@@]4(OC)CC[C@@]5(C[C@@]4(C)[C@H](O)c4ccc(C)cc4)[C@@H](C2)N(CC2CC2)CC[C@]315 | 7.88 |  |  | < 5.30 | 7.97 | 
4 | COc1ccc2c3c1O[C@H]1[C@@]4(OC)CC[C@@]5(C[C@@]4(C)[C@H](O)c4ccc(C(F)(F)F)cc4)[C@@H](C2)N(CC2CC2)CC[C@]315 | 10.29 |  |  | 7.13 | 10.62 | 
5 | COc1ccc([C@@H](O)[C@]2(C)C[C@@]34CC[C@]2(OC)[C@@H]2Oc5c(OC)ccc6c5[C@@]23CCN(CC2CC2)[C@@H]4C6)cc1 | 8.21 |  |  | 6.75 | 8.41 | 
6 | COc1ccc2c3c1O[C@H]1[C@@]4(OC)CC[C@@]5(C[C@@]4(C)C(=O)c4ccc(C(F)(F)F)cc4)[C@@H](C2)N(CC2CC2)CC[C@]315 | 7.46 | 6.98 | 5.88 | 6.02 | 7.29 | 5.76
7 | COc1cccc([C@@H](O)[C@]2(C)C[C@@]34CC[C@]2(OC)[C@@H]2Oc5c(OC)ccc6c5[C@@]23CCN(CC2CC2)[C@@H]4C6)c1 | 7.77 |  |  | 6.06 | 7.41 | 

pEC50, pKi: −log10 of the molar value.
